Our source for the Ki values is patent US6790854B2, “Diphenylalkylamine derivatives useful as opioid receptor agonists” (Meiji Seika Kaisha, Ltd., priority 2000, dated 2004).

In the test the target is opioid δ receptor (Rattus norvegicus, UniProt P33533). The experiment in a line: Binding affinity for opioid δ receptor ([3H]-Naltrindole displacement, rat forebrain membrane fraction). The conditions noted are these: read-out: Binding affinity Ki, [3H]-Naltrindole 1 nM, 25° C., 90 minutes, Ki calculated from IC50 by the Cheng-Prusoff equation.

What is called Ki is a dissociation constant, usually derived from enzyme kinetics or from competition with a known ligand. Turning to `CCN(CC)C(=O)c1ccc(C(CCN2CCC(n3c(=O)[nH]c4ccccc43)CC2)c2cccc(F)c2)cc1` (centres unmarked), the Ki is 821 nM.

For `CCN(CC)C(=O)c1ccc(C(CCN2CCC(n3c(CO)nc4ccccc43)CC2)c2cccc(OC)c2)cc1` (centres unmarked), the Ki is 345 nM.

Regarding `CCN(CC)C(=O)c1ccc(C(CCN2CCC3(CC2)C(=O)NCN3c2ccccc2)c2cccc(O)c2)cc1` (centres unmarked), the Ki was 171 nM.

As for `COc1cccc(C(CCN2CCC(n3c(=O)[nH]c4ccccc43)CC2)c2ccc(C(=O)N3CCCCC3)cc2)c1` (centres unmarked), the Ki was 2760 nM.

`CCN(CC)C(=O)c1ccc(C(CCN2CCC(n3c(=O)[nH]c4ccccc43)CC2)c2ccc3c(c2)OCO3)cc1` (centres unmarked): the inhibitory constant (Ki) is 1540 nM.
